Data on one molecule can be found in publication PMC12903857 (2026).

This assay addresses T1, 14-3-3σ, tagged with a Twin-Strep tag (UniProt P31947 1-248).
T1 chain: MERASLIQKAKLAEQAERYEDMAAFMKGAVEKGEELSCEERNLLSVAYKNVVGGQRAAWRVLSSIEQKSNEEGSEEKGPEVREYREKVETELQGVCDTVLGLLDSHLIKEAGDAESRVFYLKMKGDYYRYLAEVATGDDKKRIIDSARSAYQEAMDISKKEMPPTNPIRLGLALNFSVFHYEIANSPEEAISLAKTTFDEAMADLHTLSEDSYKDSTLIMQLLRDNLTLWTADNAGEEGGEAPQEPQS
The assay can be described thus: SPR.

As usually defined, the Kd is the equilibrium constant for the complex coming apart. A higher Kd goes with lower affinity. As to DRSSSAPNVHIN (acetylated; phosphoserine at 365) [acetylated 12-mer B-RAF peptide], the Kd turned out to be 2700 nM.
